These results are taken from patent publication US20030021772A1, “Method for treating effects of sleep deprivation and jet lag with NADPH and NADPH” (priority 2001, published 2003).

A short description of this data set: Stability at acidic pH. It is filed as physicochemical. As to conditions: pHs below 7, as in the human stomach. The text has this:
Suitable oral forms of NADH and NADPH which can be used in the practice of the present invention are described in my U.S. Pat. No. 5,332,727, the disclosure of which is incorporated herein by reference. Both NADH and NADPH are very unstable at pHs below 7 which prevail within the confines of the human stomach. Therefore, when used in oral form, these substances must be coated with an acid-stable protective film so that they can survive the stomach environment for subsequent absorption by the intestine. Suitable acid-stable coatings are known in the art and can be applied by a conventional coating process after the active ingredients are formed into a tablet or capsule. Examples of suitable coatings are: cellulose acetate phthalate; polyvinylacetate phthalate; hydroxyl-propyl-methyl cellulose phthalate; methacryllic acid copolymers; fat-wax; shellac; zein; aqua-coating; and surerelease. Another possibility for the coating is a solution of a phthalate and a lack dry substance in isopropanol. An example of a suitable lack dry substance is sold under the name EUDRAGIT™ by Rohm Pharma. Alternatively, a protein coating in an aqueous medium may be applied. However, a sugar-coating should not be used because it will destabilize NADH.

“nicotinamide-adenine-dinucleotide phosphate [NADPH]”: the “stability at pHs below 7” value is on record as “very unstable”.
